## Yeast mating assay 2: variants of the scFv Ab-95

Data: MIT Lincoln Laboratory AlphaSeq set, Engelhart et al. 2022, doi:10.1038/s41597-022-01779-4, as distributed in FLAb.

Target: peptide PDVDLGDISGINAS, taken from heptad repeat 2 (HR2) of SARS-CoV-2 spike.

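Phage display of a naive human antibody library on the peptide gave the parent. AAYL52 was designed without a model: most single CDR substitutions and a random sample of double and triple ones. In AlphaSeq, yeast of one mating type display the scFv and yeast of the other type display the target. Mating (16 h, 30 °C) was followed by selection of diploids and sequencing of their barcodes. A regression on co-assayed BCL2-family reference pairs converts the normalised counts of each replicate to an apparent Kd. Each pool was mated in three replicate cultures.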

Ab-95 is the parent antibody, in scFv form: VH, then three GGGGS repeats, then VL. The heavy chain is unchanged in all variants.
VH: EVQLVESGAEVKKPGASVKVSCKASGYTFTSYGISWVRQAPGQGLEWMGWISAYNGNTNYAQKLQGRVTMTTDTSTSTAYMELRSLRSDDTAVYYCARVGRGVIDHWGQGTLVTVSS
VL: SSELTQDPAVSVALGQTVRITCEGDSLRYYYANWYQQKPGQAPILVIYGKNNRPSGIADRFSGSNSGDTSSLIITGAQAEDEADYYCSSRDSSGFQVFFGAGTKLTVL

Each variant is given by its three light chain CDRs, as the data file delimits them; those of the parent are EGDSLRYYYAN, GKNNRPS, SSRDSSGFQVF. Numbers give log10(Kd / nM), so 0 is 1 nM and 3 is 1 µM. Smaller is tighter. The mean shown is taken over the replicates in which the pair was detected. A pair that was not seen in that replicate is written "ND"; this usually means weak binding, but a binder can also be missed. For reference, the parent read 2.31 as the reference entry and 2.25 as a member of this library.

| CDR-L1 | CDR-L2 | CDR-L3 | log10 Kd, replicates | log10 Kd (nM), mean | control signals |
|---|---|---|---|---|---|
| EGDSDRYYYAN | YKNNRPS | SSRDSSGFQVT | ND / 5.80 / 4.54 | 5.17 | 4 of 9 (4.59) |
| EGDSLRYVYAN | GKNNRPS | SSRDSSGFQGG | 2.34 / 2.24 / 1.65 | 2.08 | 4 of 9 (3.84) |
| GGDSLRYYYAN | GKNNRPS | SSRDISGFQCF | 3.50 / 2.92 / ND | 3.21 | 0 of 9 |
| EVDQLRYYYAN | GKNNRPR | SSRDSSGFQVF | ND / 4.83 / 3.86 | 4.35 | 2 of 9 (4.09) |
| EGDSLPYYYAN | GKNNRPS | SSRDSSGKIVF | ND / ND / ND | ND | 0 of 9 |
| EGVSLRYYEAN | GHNNRPS | SSRDSSGFQVF | 1.20 / 1.20 / 0.70 | 1.03 | 6 of 9 (4.47) |
| EGDSLRYYYLN | GKNNRNS | SSRDSSVFQVF | ND / ND / ND | ND | 1 of 9 (3.58) |
| EGDSLRYYYEN | EKNNRPS | SSRDSSGFLVF | 4.55 / 4.11 / ND | 4.33 | 3 of 9 (3.70) |
| EGDHLEYYYAN | GKNNRPS | SSRDWSGFQVF | ND / 3.93 / ND | 3.93 | 0 of 9 |
| VGDSLRYYYAN | GKNNRPS | SSRQSSGQQVF | 2.95 / 2.48 / 3.07 | 2.83 | 5 of 9 (4.40) |
| LGDSLRYYYAN | GKNNRPS | SSRNSSGFQVL | 3.33 / ND / ND | 3.33 | 2 of 9 (4.07) |
| VADSLQYYYAN | GKNNRPS | SSRDSSGFQVF | 2.46 / 2.76 / 2.21 | 2.48 | 3 of 9 (3.68) |
| EGDSLRYYYAN | KKWNRPS | SSRDDSGFQVF | ND / ND / ND | ND | 2 of 9 (3.84) |
| EGDSCRYYYAN | GKNNQPS | RSRDSSGFQVF | ND / ND / ND | ND | 0 of 9 |
| SGDSLRHYYAF | GKNNRPS | SSRDSSGFQVF | 1.38 / 1.41 / 1.12 | 1.30 | 2 of 9 (3.55) |
| QGPSLRYYYAG | GKNNRPS | SSRDSSGFQVF | 3.96 / 2.72 / 3.41 | 3.36 | 4 of 9 (4.40) |
| EGDSLRYYQAN | GKSNRPS | SSRDSSGFHVF | 1.51 / 1.42 / 1.26 | 1.40 | 3 of 9 (3.70) |
| EGDSLRYYYAN | GKNNRPS | SSRDIIGFQVR | 2.47 / 2.71 / 2.83 | 2.67 | 2 of 9 (4.42) |
| EGDSLRYYYWN | GKSNRCS | SSRDSSGFQVF | 6.13 / 5.21 / ND | 5.67 | 4 of 9 (4.53) |
| DRDSLRKYYAN | GKNNRPS | SSRDSSGFQVF | 3.47 / 3.62 / 4.48 | 3.86 | 4 of 9 (4.37) |
| EGDSLRYYYAN | GMNNRPG | SSRFSSGFQVF | 3.09 / 3.43 / 3.72 | 3.41 | 4 of 9 (3.72) |
| EGDSLRYYYAN | GKNNRPS | SSRDKSGFQVM | 1.99 / 2.32 / 1.68 | 2.00 | 0 of 9 |
| EGDSLRYYYTN | GKNTRPS | SSRDSSGFQVF | 2.74 / 2.44 / 2.11 | 2.43 | 4 of 9 (3.79) |
| EGGSLRWYYAN | GKNNRPS | SSRDSSGFQVF | 1.96 / 1.42 / 1.25 | 1.54 | 8 of 9 (4.16) |
| EGTSLRYYYAN | GKNSRPS | SSRDSSGFQVF | 3.06 / 3.44 / 2.45 | 2.98 | 1 of 9 (4.44) |
| EGDSLSYYYAN | GKNNRPS | SSRDSSFFWVF | 3.36 / ND / ND | 3.36 | 2 of 9 (3.80) |
| EGDDLRVYYAN | GKNNRPS | CSRDSSGFQVF | 3.77 / 4.42 / 3.37 | 3.85 | 2 of 9 (3.94) |
| EGDSLRYYYAN | GKNNQPS | SSRKSSGRQVF | ND / 3.58 / ND | 3.58 | 1 of 9 (3.28) |
| EYDSLRYYEAN | GPNNRPS | SSRDSSGFQVF | 3.09 / 2.70 / 2.70 | 2.83 | 4 of 9 (3.57) |
| PGDSLRYYYAA | GKNNRPG | SSRDSSGFQVF | 3.71 / ND / ND | 3.71 | 1 of 9 (3.60) |
| EGDSLRYYYAN | GKNNLPV | SSRDSSGFQNF | ND / 3.87 / ND | 3.87 | 1 of 9 (4.13) |
| EGDSLRYYYAN | GKNNRPS | SSRDHAGFQVF | 2.38 / 2.15 / 2.43 | 2.32 | 4 of 9 (4.19) |
| EGDSLRPYYAN | GKNNRPS | LSRDSSGDQVF | ND / ND / ND | ND | 2 of 9 (3.55) |
| EGDSLRYYYGN | GKNNRAS | SSRDSSGFQDF | 2.49 / 2.44 / 1.93 | 2.29 | 4 of 9 (4.08) |
| EGMSLRYYYAN | GKNNRPS | SSRDSSGFQVN | 2.39 / 2.29 / 2.04 | 2.24 | 1 of 9 (4.30) |
| EGDSFRYYYAN | GKNNRPS | KSRDSSGFQVF | ND / ND / ND | ND | 1 of 9 (4.52) |
| EGDSLMYYEAN | GKNNKPS | SSRDSSGFQVF | 2.11 / 1.96 / 1.28 | 1.78 | 4 of 9 (4.15) |
| EGDSLRYYRAY | GKNNRPS | SSRDSLGFQVF | 4.33 / 4.03 / 3.89 | 4.08 | 6 of 9 (3.67) |

Top 6 of the variants detected in all replicates, tightest first:

| CDR-L1 | CDR-L2 | CDR-L3 | log10 Kd, replicates | log10 Kd (nM), mean | control signals |
|---|---|---|---|---|---|
| EGVSLRYYEAN | GHNNRPS | SSRDSSGFQVF | 1.20 / 1.20 / 0.70 | 1.03 | 6 of 9 (4.47) |
| SGDSLRHYYAF | GKNNRPS | SSRDSSGFQVF | 1.38 / 1.41 / 1.12 | 1.30 | 2 of 9 (3.55) |
| EGDSLRYYQAN | GKSNRPS | SSRDSSGFHVF | 1.51 / 1.42 / 1.26 | 1.40 | 3 of 9 (3.70) |
| EGGSLRWYYAN | GKNNRPS | SSRDSSGFQVF | 1.96 / 1.42 / 1.25 | 1.54 | 8 of 9 (4.16) |
| EGDSLMYYEAN | GKNNKPS | SSRDSSGFQVF | 2.11 / 1.96 / 1.28 | 1.78 | 4 of 9 (4.15) |
| EGDSLRYYYAN | GKNNRPS | SSRDKSGFQVM | 1.99 / 2.32 / 1.68 | 2.00 | 0 of 9 |

Empty control strains, which show no peptide, gave a signal in 28% of pairings with library AAYL52; the median was 3.91 and 95% of these signals were weaker than 2.90. No background was subtracted. The control count says in how many pairings with the empty strains this scFv gave a signal, with their mean in brackets.